Where “and” joins values, the source holds several entries; their conditions need not be identical. Identical values can stand only once.
Assays:
[1] = test system: BGLT3 RNA in HUDEP-2 cells; assay: RT-qPCR of BGLT3 in HUDEP-2 cells; format: cell-based, human; details: HUDEP-2, 4 days
Description: (§1) Total cellular RNA was prepared using the Tissue Total RNA Mini Kit (FAVORGEN), and cDNA was synthesized using ReverTra Ace Master Mix (TOYOBO). Expression of target genes was analyzed using THUNDERBIRD SYBR qPCR Mix (TOYOBO) on a CFX Connect Real Time System (Bio-Rad). The qPCR data were acquired on CFX Maestro (Bio-Rad). Primers are listed in Supplementary Table 10. GAPDH was used as a reference. Primers were purchased from INTEGRATED DNA TECHNOLOGIES or FASMAC.

BGLT3 RNA in CD34+ cells = assay: RT-qPCR of BGLT3 in CD34+ cells; format: cell-based, human; details: DAY7, 3 μM
Description: HUDEP-2 cells and HiDEP-1 cells were grown in Stemline II Hematopoietic Stem Cell Expansion Medium (Sigma) supplemented with 50 ng/mL recombinant stem cell factor (SCF; R&D systems), 3 IU/mL recombinant erythropoietin (EPO; Kyowa Kirin), 1 μM dexamethasone (Dex; Sigma), and 1 μg/mL doxycycline (Sigma). A total of 1 × 10^5 human CD34^+ progenitor cells derived from bone marrow or peripheral blood (Lonza) were cultured on 35-mm dishes (BD Falcon) in StemSpan SFEMII medium with 50 ng/mL SCF, 5 IU/mL EPO, and 10 ng /mL interleukin 3 (IL-3; R&D systems). The medium was changed on day 4 to SCF, EPO, and 1 μM Dex, and the cells were transferred to 60-mm dishes (BD Falcon). Seven days after the onset of differentiation, cells were counted and 1 × 10^6 cells were re-plated on 100-mm dishes (BD Falcon) with SCF, EPO, and Dex. The rat myoblast cell line H9c2, HEK293T, and PLAT-E cells were maintained in Dulbecco’s modified Eagle’s medium (Thermo Fisher Scientific) supplemented with 10% heat-inactivated fetal bovine serum (FBS) and penicillin/streptomycin. All cells were cultured at 37 °C under 5% CO2.
as §1

[2] = test system: β- and γ-globin genes in HUDEP-2 cells; assay: RT-qPCR of β- and γ-globin in HUDEP-2 cells; format: cell-based, human; details: HUDEP-2, 4 days
Description: as §1

G9a = target: T1, G9a (Homo sapiens, UniProt Q96KQ7); assay: In vitro G9a methyltransferase assay (AlphaLISA-based); format: biochemical; parameters: purchased BPS Bioscience
T1 sequence (Q96KQ7 1-1210): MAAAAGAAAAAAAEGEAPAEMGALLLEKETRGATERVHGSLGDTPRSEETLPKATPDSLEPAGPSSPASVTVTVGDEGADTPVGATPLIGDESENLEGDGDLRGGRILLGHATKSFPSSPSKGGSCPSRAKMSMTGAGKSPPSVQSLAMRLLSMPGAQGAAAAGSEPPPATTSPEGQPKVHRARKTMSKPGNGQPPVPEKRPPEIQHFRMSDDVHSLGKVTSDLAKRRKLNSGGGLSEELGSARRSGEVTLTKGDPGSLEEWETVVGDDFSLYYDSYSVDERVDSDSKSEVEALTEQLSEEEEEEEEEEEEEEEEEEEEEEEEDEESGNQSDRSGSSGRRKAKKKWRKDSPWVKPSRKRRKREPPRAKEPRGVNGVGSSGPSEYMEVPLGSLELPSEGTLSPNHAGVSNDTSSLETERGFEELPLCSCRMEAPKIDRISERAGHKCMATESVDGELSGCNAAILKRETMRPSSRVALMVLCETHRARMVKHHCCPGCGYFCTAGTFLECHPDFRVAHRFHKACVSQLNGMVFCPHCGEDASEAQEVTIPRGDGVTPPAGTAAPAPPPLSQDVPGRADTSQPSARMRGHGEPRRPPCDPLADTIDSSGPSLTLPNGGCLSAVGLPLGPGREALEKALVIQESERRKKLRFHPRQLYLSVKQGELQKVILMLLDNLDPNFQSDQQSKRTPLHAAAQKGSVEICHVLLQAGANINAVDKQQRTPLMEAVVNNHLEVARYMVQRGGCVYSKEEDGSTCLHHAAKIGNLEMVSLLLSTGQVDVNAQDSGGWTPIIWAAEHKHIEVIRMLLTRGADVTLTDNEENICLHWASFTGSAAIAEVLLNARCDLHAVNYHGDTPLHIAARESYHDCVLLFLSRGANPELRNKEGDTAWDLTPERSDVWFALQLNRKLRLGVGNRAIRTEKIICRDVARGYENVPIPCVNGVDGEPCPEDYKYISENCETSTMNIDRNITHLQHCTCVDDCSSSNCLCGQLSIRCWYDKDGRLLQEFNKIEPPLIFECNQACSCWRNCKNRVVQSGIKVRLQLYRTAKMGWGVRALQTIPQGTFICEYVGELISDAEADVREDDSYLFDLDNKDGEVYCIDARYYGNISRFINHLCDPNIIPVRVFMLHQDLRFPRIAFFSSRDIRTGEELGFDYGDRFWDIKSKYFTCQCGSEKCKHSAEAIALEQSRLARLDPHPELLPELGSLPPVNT
Description: An amplified luminescence proximity homogeneous assay (ALPHA) was performed with a modified version of a previously described method. Recombinant G9a proteins (BPS Bioscience) were incubated with 15 μM S-adenosyl-methionine (Sigma) and 50 nM biotinylated histone H3 (1-21; AnaSpec) in the assay buffer (50 mM Tris-HCl (pH 9.0), 50 mM NaCl, 0.01% Tween-20, and 1 mM DTT). After incubation at room temperature for 1 h, AlphaLISA anti-H3K9me2 acceptor beads (final concentration 10 μg/mL, PerkinElmer, AL117C) and AlphaScreen streptavidin donor beads (final concentration 10 μg/mL, PerkinElmer, 6760002B) were added and incubated for an additional 1 h prior to detection of the alpha signal with an EnSpire Alpha plate reader (PerkinElmer). ALPHA profile was analyzed using Origin (OriginLab).

Compound: Cc1c(C(=O)N[C@H](CCC2CC2)C(=O)Nc2ccc(C#N)cc2)[nH]c2c1C(=O)CC(C)(C)C2 [RK-0133114]
- Relative expression of BGLT3 RNA ([1]; 0.03 μM): 0.5248 and 1.042 and 0.6576
- Relative expression of BGLT3 RNA ([1]; 0.1 μM): 1.063 and 1.044 and 1.39
- Relative expression of BGLT3 RNA ([1]; 0.3 μM): 1.106 and 0.86 and 0.6718
- Relative expression of BGLT3 RNA ([1]; 1 μM): 1.177 and 0.871 and 0.6455
- Relative expression of BGLT3 RNA ([1]; 3 μM): 1.149 and 0.8746 and 0.841
- Relative expression of BGLT3 RNA (BGLT3 RNA in CD34+ cells): 2.448 and 2.349 and 2.501
- Relative expression of β-globin ([2]; 0.03 μM, relative to DMSO): 0.9476 and 0.9117 and 0.7199
- Relative expression of γ-globin ([2]; 0.03 μM, relative to DMSO): 1.068 and 1.169 and 1.019
- Relative expression of β-globin ([2]; 0.1 μM): 0.9383 and 0.8834 and 0.8704
- Relative expression of γ-globin ([2]; 0.1 μM): 1.237 and 1.228 and 1.187
- Relative expression of β-globin ([2]; 0.3 μM): 0.875 and 0.8569 and 0.9208
- Relative expression of γ-globin ([2]; 0.3 μM): 0.8891 and 1.107 and 1.136
- Relative expression of β-globin ([2]; 1 μM): 1.026 and 0.9802 and 0.9189
- Relative expression of γ-globin ([2]; 1 μM): 0.8715 and 1.235 and 1.061
- Relative expression of β-globin ([2]; 3 μM): 1.054 and 0.9655 and 0.8251
- Relative expression of γ-globin ([2]; 3 μM): 1.041 and 1.394 and 1.125
- fold weaker inhibition than RK-701 (G9a): ~ 100 fold
